# Yeast mating assay 2: variants of the scFv Ab-91

Target: peptide PDVDLGDISGINAS, taken from heptad repeat 2 (HR2) of SARS-CoV-2 spike.

Parent: Ab-91, a human scFv built as VL, three GGGGS repeats, VH. Only the CDRs of the heavy chain vary.
VL: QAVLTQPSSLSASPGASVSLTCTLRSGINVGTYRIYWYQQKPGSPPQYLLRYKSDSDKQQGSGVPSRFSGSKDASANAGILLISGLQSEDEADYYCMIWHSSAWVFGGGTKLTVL
VH: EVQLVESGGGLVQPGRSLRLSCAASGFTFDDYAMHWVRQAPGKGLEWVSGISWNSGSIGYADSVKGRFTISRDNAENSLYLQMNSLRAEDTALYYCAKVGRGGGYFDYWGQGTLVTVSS

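Phage display of a naive human antibody library on the peptide gave the parent. In library AAYL51, one, two or three CDR residues were substituted; doubles and triples were drawn at random. Affinity was read by AlphaSeq, a pooled yeast mating assay with surface-displayed partners. Binding brings cells together so that they mate, and sequencing counts the barcode pairs among the diploids. Each replicate has its own calibration line, from reference interactions of the BCL2 family. There are three technical replicates.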

Positions count from residue 1 of the parent VH; D31W puts W in place of D.
Scale: log10 of Kd in nM, estimated from mating counts; low values are strong binders.
An entry "nd" has no value in the source: the pair was not observed among the diploids in that replicate. This suggests poor binding but is not conclusive.
Background: pairings of library AAYL51 with three empty control strains gave a value in 21% of cases (median 4.54, 5th percentile 3.26). Values in that range, when seen in few replicates, are hard to tell from nonspecific mating. Also given: how often the same scFv was detected with the empty control strains, with their mean in brackets.

| # | changes | log10 Kd (nM) by replicate | empty controls |
|---|---|---|---|
| 1 | D31W M34D G50C | nd nd nd | 2/9 (5.24) |
| 2 | G26A G59P D107W | nd 5.35 4.29 | 2/9 (4.62) |
| 3 | N54H D62V V64M | 4.30 nd nd | 6/9 (4.22) |
| 4 | S55V K65P Y108C | nd nd 2.32 | 0/9 |
| 5 | S55F Y105T F106K | 4.14 nd nd | 0/9 |
| 6 | F27D Y105Q F106V | nd nd nd | 0/9 |
| 7 | S52I G103A D107P | nd 4.91 nd | 1/9 (5.00) |
| 8 | N54W S63M G100R | nd nd nd | 0/9 |
| 9 | Y32K S57L I58S | nd nd nd | 0/9 |
| 10 | T28K I58H G100V | 4.02 nd 3.58 | 3/9 (4.05) |
| 11 | G26L D30I D31N | 4.96 nd nd | 5/9 (4.72) |
| 12 | H35V S55H V99S | 3.65 nd nd | 2/9 (4.51) |
| 13 | D30N S52Q G104Q | 3.87 3.92 4.01 | 4/9 (4.88) |
| 14 | G26T H35C G100Q | nd nd nd | 0/9 |
| 15 | G56H A61F R101A | 2.91 3.22 3.49 | 2/9 (4.29) |
| 16 | T28L I51H R101W | nd nd nd | 1/9 (2.08) |
| 17 | G50K G100V Y105S | nd nd nd | 0/9 |
| 18 | F27Y S57V R101C | nd nd 4.28 | 3/9 (3.86) |
| 19 | T28Y G103Q Y108C | nd nd nd | 2/9 (4.82) |
| 20 | S52P G104Q Y108F | 4.28 nd nd | 3/9 (4.54) |
| 21 | A33I S57M G103Q | nd nd nd | 0/9 |
| 22 | F29M Y60V V99L | nd nd nd | 0/9 |
| 23 | A33T Y108M | nd 3.70 4.28 | 1/9 (3.13) |
| 24 | F27T G56T F106Q | nd nd nd | 1/9 (3.18) |
| 25 | W53M G56H Y60W | nd nd nd | 1/9 (2.83) |
| 26 | G100T G104H | 4.45 nd 5.04 | 3/9 (4.37) |
| 27 | V64Y F106H D107R | nd nd nd | 0/9 |
| 28 | S52T Y105N | 4.61 5.35 3.58 | 4/9 (4.45) |
| 29 | A33L I58C Y108A | 2.81 3.37 1.59 | 1/9 (3.40) |
| 30 | G26P I58D V99P | nd nd nd | 0/9 |
| 31 | S55I G100Y R101Y | 2.78 5.48 4.15 | 1/9 (4.80) |
| 32 | D30W A61R G100Q | nd nd nd | 0/9 |
| 33 | A33D D62S G102V | nd 4.12 nd | 2/9 (4.48) |
| 34 | V99T F106Q | 4.58 5.87 nd | 2/9 (4.99) |
| 35 | S52W S63D | nd nd nd | 0/9 |
| 36 | M34L I51E F106Y | nd nd nd | 0/9 |
| 37 | I51A D62F | nd nd nd | 1/9 (3.56) |
| 38 | G50L G100H Y108N | 6.48 4.06 nd | 6/9 (4.90) |
| 39 | G26Y F29E G102W | nd 4.42 nd | 0/9 |

The 3 strongest on average among those seen in every replicate, once more:

| changes | log10 Kd (nM) by replicate | empty controls |
|---|---|---|
| A33L I58C Y108A | 2.81 3.37 1.59 | 1/9 (3.40) |
| G56H A61F R101A | 2.91 3.22 3.49 | 2/9 (4.29) |
| D30N S52Q G104Q | 3.87 3.92 4.01 | 4/9 (4.88) |

From the AlphaSeq antibody data of Engelhart et al. 2022 (doi:10.1038/s41597-022-01779-4), copy in the FLAb collection.